# AlphaSeq binding of Ab-14 light chain variants to a spike HR2 peptide

The target is the same throughout: PDVDLGDISGINAS, from the HR2 region of SARS-CoV-2 spike.

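Phage display of a naive human antibody library on the peptide gave the parent. These sequences belong to a second round, designed from the earlier measurements on random variants of the parent. Several design methods are mixed in this list. The assay is AlphaSeq: two haploid yeast populations carry antibody and antigen on their surface. Mating (16 h, 30 °C) was followed by selection of diploids and sequencing of their barcodes. The ratio of observed to expected reads was calibrated, replicate by replicate, on BCL2-family standards whose Kd was known from biolayer interferometry. Mating was done six times.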

Each scFv is VH, three GGGGS repeats, VL, as in the parent Ab-14, and differs from it in the CDRs of the light chain only.
VH: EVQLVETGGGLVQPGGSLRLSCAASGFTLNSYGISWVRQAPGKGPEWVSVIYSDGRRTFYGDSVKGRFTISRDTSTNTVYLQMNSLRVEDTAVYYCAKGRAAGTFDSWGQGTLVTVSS
VL: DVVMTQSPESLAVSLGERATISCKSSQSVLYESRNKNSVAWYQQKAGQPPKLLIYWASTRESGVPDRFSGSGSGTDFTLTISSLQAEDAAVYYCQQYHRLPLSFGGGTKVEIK

Each variant is given by its three light chain CDRs, as the data file delimits them; those of the parent are KSSQSVLYESRNKNSVA, WASTRES, QQYHRLPLS.
Variants here have more than six changes.
Affinities are written as log10 Kd with Kd in nM; a lower number is a better binder.
The mean shown is taken over the replicates in which the pair was detected.
"nd" means that the variant was in the library but no mating with the target was seen in that replicate; the authors take this as a sign of poor binding, and no number exists.
The authors' rule: three or more of the six replicates give a measured affinity, fewer mean a poor binder.
Background: pairings of all light chain designs with three empty control strains gave a value in 4% of cases (median 2.64, 5th percentile 1.59). Values in that range, when seen in few replicates, are hard to tell from nonspecific mating.
A sequence measured in both rounds can read differently, since the two assays cover different ranges.

For HVSYQLRPGREIQNPIA | EGSHRAA | QQYDRLPLG, the assay gave 0.89, 0.75, 0.43, 0.62, 0.54, 0.74 (mean 0.66). The variant TISQSAHMESHNRNNVA | DLNLRGS | QQYDRLPLS gave 0.39, 0.62, 0.66, 0.60, 0.35, 0.49 (mean 0.52). The variant KIRFQQYSQSEMEDNIA | QESTRHQ | QQYFRLPLS gave 0.67, 1.19, 0.41, 0.56, 0.83, 0.77 (mean 0.74). With NLFGVDFESKQMGNAIA | DMSHVMA | QQYFMLPLH the result was 1.27, 0.99, 0.92, 0.87, 1.29, 1.03 (mean 1.06). With IVSQLMLWGWHAKNSIA | EAQTRLH | QQYDRLPLF the result was 0.96, 1.74, 0.97, 2.04, 1.28, 1.21 (mean 1.37).

The variant KLSATYRYESQNKNSIA | EMTTRAS | QCYHRLPLS showed 1.14, 1.42, 2.14, 1.64, 2.27, 2.04 (mean 1.77). For TISTLMRYETSLKNAIA | NAQTREN | QQYHRLPIS, the assay gave 0.02, 0.49, -0.04, 0.25, 0.36, -0.46 (mean 0.10). The variant QMSANFLWPGNGRQSVA | EISTAME | QQYSHLPLS showed 1.80, 2.07, 1.71, 2.04, 1.56, 2.11 (mean 1.88). For TISGMTNQAMSKHNSVA | NVTMRPE | QQYHRLPLS, the assay gave 0.59, 0.81, 0.98, 0.94, 0.89, 0.63 (mean 0.81). The variant KLSQVTEYESHNKNNVA | DLSTRGS | QDYHRLPLS showed -0.27, 0.11, 0.00, 0.44, 0.19, 0.33 (mean 0.13).

With MLQIEPNGYMGMRSNVA | DGSLVRM | QQYARLPLM the result was 1.01, 0.71, 1.70, 1.24, 2.09, 1.57 (mean 1.39). The variant KLSSVTGTEKVHGNNVA | EMETRER | QQYNRLPLS showed -0.24, -0.37, -0.51, -0.58, -0.46, -0.27 (mean -0.41). For TISYSAQMTGLNRNSVA | QAEERLE | QQYHRLPLS, the assay gave 0.69, 0.82, 0.63, 0.77, 0.58, 0.94 (mean 0.74). The variant TIGASLMFGTRNRNNVA | EVSERLN | QQYDRLPLF gave 0.36, 0.18, 0.10, 0.18, 0.16, 0.56 (mean 0.26). With KVSQEQDYQSRNKNSVA | DASLRES | QQYHRLPLS the result was 0.30, 0.30, 0.14, 0.06, -0.05, 0.10 (mean 0.14).

For HMSQVTMYGMWMRNSVA | QTSTREE | QQYDRLPLS, the assay gave 0.95, 0.77, 0.66, 1.14, 0.97, 1.20 (mean 0.95). With KVDSAVNYGQRNKNSVA | DASQRES | QQYHRLPLS the result was -0.21, -0.41, -0.30, -0.48, -0.49, -0.21 (mean -0.35). The variant MIAMGLRGVGRNKNSVA | NAQTRES | QHYHRLPLS gave 2.31, 1.63, 2.29, 2.18, nd, 2.17 (mean 2.12). With KIMQSLNYESFSKNSVA | GQETRER | QSYHRLPLS the result was 0.91, 1.24, 0.89, 1.50, 1.01, 1.01 (mean 1.09). With MISQLWNMGTFAINSVA | QATIRNS | QQYDRLPLM the result was 2.59, 2.54, 1.34, 2.48, 2.39, 2.62 (mean 2.32).

For VLPDNLLMKESQYHSIA | NGDQRME | QQYMRLPLM, the assay gave -0.43, -0.55, -0.64, -0.68, -0.61, -0.57 (mean -0.58). The variant KLQQMELYMSRNKNSVA | DASQRES | QAYHRLPLS gave 0.16, -0.14, -0.04, -0.32, -0.36, 0.11 (mean -0.10). With SLSESEREMDSHEQNIA | DGTEHMR | QQYFQLPLH the result was 2.70, 1.59, 1.59, 1.56, 1.80, 1.87 (mean 1.85). With KISQSWLYESRNINNVA | NCSMRES | QQYHRLPLS the result was 0.61, 0.50, 0.49, 0.61, 0.37, 0.45 (mean 0.51). With MFSQLTYMGSRARNAVA | QAETRVN | QQYHHLPLI the result was 1.14, 1.19, 1.10, 1.39, 0.91, 1.05 (mean 1.13).

The variant KMTKAEQSIGSHQQNIA | DSNKITD | QQYYRLPLT showed 0.34, 0.51, 0.44, 0.22, 0.30, 0.54 (mean 0.39). For NVHALDNISSEFQNSIA | DQECRDA | QQYFRLPLS, the assay gave 1.37, 1.91, 1.27, 2.24, 1.96, 1.94 (mean 1.78). With IVSQLMLWGHLAKNSIA | EAQTRVN | QQYDRLPLM the result was 2.09, 1.35, nd, 2.29, 2.25, 2.80 (mean 2.15). The variant MISQMYNMGQFAINSVA | QAQTRNE | QQYDRLPLT gave nd, 1.69, 1.46, 1.33, 0.90, 1.65 (mean 1.41). The variant TLGGVTSYEMQNKNSVA | QMTTRES | QQYTRLPLS showed 0.23, -0.04, 0.35, -0.26, -0.49, 0.04 (mean -0.03).

The variant KIGGVTNGISRNKNSVA | EQSTRED | QQYNRLPLI gave 0.58, 0.48, 0.51, 0.28, 0.48, 0.83 (mean 0.53). With IISQSVMFEQTLINSVA | NAQTREN | QQYHRLPLS the result was 0.64, 0.31, 0.71, 0.28, 0.55, 0.89 (mean 0.56). The variant VMQMDLYWNNDETYAIA | DVTMKEK | QQYNRLPLM showed nd, nd, nd, nd, nd, nd.

Source: Li et al. 2023 (doi:10.1038/s41467-023-39022-2), MIT Lincoln Laboratory and A-Alpha Bio; data file from the FLAb repository.